Assay [1] deals with T1, Adenosine A-1 receptor (Rattus norvegicus, UniProt P25099). In words: biochemical.
Assay [2] concerns the target T1, Adenosine A-1 receptor.

Chains of the proteins cited; added tags and fusions are not shown.
UniProt P25099, whole entry: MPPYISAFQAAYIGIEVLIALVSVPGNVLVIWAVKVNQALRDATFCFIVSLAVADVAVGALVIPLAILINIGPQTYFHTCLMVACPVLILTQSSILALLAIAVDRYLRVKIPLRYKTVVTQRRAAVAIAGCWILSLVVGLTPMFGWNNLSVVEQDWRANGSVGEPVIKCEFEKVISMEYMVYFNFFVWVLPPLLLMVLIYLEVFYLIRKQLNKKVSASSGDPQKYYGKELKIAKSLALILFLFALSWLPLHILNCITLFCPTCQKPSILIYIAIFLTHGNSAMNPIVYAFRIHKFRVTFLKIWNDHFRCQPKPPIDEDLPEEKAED

Read-outs that look alike come from different tables or passages of the source.

This is an account of results in patent US5047534A (Merrell Dow Pharmaceuticals Inc., priority 1990, dated 1991).

Take `CCCn1c(=O)c2[nH]c(C3Cc4ccccc4C3)nc2n(CCC)c1=O` [3,7-dihydro-8-(2-indanyl)-1,3-dipropyl-1H-purine-2,6-dione]: the Ki on Adenosine A-1 receptor [1] stood at 61.8 nM.

The molecule `CCCn1c(=O)c2[nH]c([C@@H](C)Cc3ccccc3)nc2n(CCC)c1=O` [3,7-dihydro-8-[(1S)-1-methyl-2-phenylethyl]-1,3-dipropyl-1H-purine-2,6-dione] had a Ki on Adenosine A-1 receptor [2] of 60.7 nM. With `CCCn1c(=O)c2[nH]c([C@H](C)Cc3ccccc3)nc2n(CCC)c1=O` [3,7-dihydro-8-[(1R)-1-methyl-2-phenylethyl]-1,3-dipropyl-1H-purine-2,6-dione], on Adenosine A-1 receptor [2], the Ki came to 6.9 nM.

What is called Ki is the dissociation constant of the complex between target and ligand, obtained from inhibition or displacement.
